# scFv variants of Ab-14 (heavy chain) against a SARS-CoV-2 spike peptide

The measurements come from Li et al. 2023 (doi:10.1038/s41467-023-39022-2) through the FLAb antibody collection.

Binding partner: SARS-CoV-2 spike HR2 peptide, sequence PDVDLGDISGINAS.

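The starting antibody came from a phage panning campaign against this peptide. These sequences belong to a second round, designed from the earlier measurements on random variants of the parent. Their group label is 14H_GP_Gen (GP: Gaussian process model; Gen: genetic algorithm; a sequence that several methods proposed may carry one label only). The assay is AlphaSeq: two haploid yeast populations carry antibody and antigen on their surface. After mating in shaken culture at 30 °C for 16 h, diploids were selected and their barcode pairs sequenced. A regression on co-assayed BCL2-family reference pairs converts the normalised counts of each replicate to an apparent Kd. Mating was done six times.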

Parent scFv Ab-14: VH joined to VL by the linker GGGGSGGGGSGGGGS. Changes lie in the heavy chain CDRs alone.
VH: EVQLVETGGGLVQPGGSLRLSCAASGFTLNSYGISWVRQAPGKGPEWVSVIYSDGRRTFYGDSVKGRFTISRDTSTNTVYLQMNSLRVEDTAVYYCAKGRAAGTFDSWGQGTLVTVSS
VL: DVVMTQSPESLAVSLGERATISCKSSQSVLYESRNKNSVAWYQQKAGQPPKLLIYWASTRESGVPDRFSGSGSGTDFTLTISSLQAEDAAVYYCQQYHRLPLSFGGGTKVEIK

Variants are written as CDR1, CDR2 and CDR3 of the heavy chain (limits as in the source). Parent: GFTLNSYGIS, VIYSDGRRTFYGDSVK, GRAAGTFDS. Values are log10 of the apparent Kd in nM; lower means stronger binding. A mean of the replicates is given; it leaves out those without a signal. A pair that was not seen in that replicate is written "nd"; this usually means weak binding, but a binder can also be missed. The authors averaged sequences with at least three values out of six and counted those with two or fewer as poor binders.

For GFQLNDYGIS | VIYSDGRRTFYGDQVK | GRTAGTFDS, the assay gave nd, -0.90, -1.26, -1.93, -0.78, -1.14 (mean -1.20; controls 0 of 18).
For GFTLNSYGIS | VIYSDGRRTFYGDSVK | GQTAGTFDV, the assay gave nd, nd, 1.90, 1.06, 0.97, 0.68 (mean 1.15; controls 0 of 18).
For GFDLNSYGIS | VIYSDGRRTFYGDSVK | GRNAGTFDA, the assay gave 0.39, 0.00, -0.17, -0.21, -0.23, 0.13 (mean -0.02; controls 0 of 18).
For GFDLNSYGIS | VIYSDGRRTAYGDSVK | GRHAGTFDS, the assay gave 1.02, 0.50, 0.43, 0.46, 0.64, 0.75 (mean 0.63; controls 0 of 18).
For KFTLNSYGIS | VIYSDGRRTFYGDSVK | GQTAGTFDS, the assay gave nd, nd, nd, nd, 1.70, nd (controls 0 of 18).
For GFDLNSYGIS | VIYSDGRRTFYGDSVK | GRIAGTFDA, the assay gave 0.45, 0.24, 0.23, 0.34, 0.42, 0.43 (mean 0.35; controls 0 of 18).
For GFSLNSYGIS | VIYSDGRRTFYGDAVK | GEAAGTFDN, the assay gave 1.17, 0.42, 0.83, 0.83, 0.88, 0.89 (mean 0.84; controls 3 of 18).
For GFELNSYGIS | VIYSDGRRTFYGDSVK | GRVAGTFDV, the assay gave 1.07, 0.52, 0.69, 0.68, 0.58, 0.69 (mean 0.70; controls 0 of 18).
For GFNLNSYGIS | VIYSDGRRTFYQDSVK | GKAAGTFDS, the assay gave 1.38, 0.58, 1.89, 0.89, 0.50, 1.33 (mean 1.09; controls 0 of 18).
For GFNLNSYGIS | VIYSDGRRTMYGDSVK | GRQAGTFDS, the assay gave 2.14, 1.94, 1.55, 1.35, 2.15, 1.83 (mean 1.83; controls 0 of 18).
For GFTLNSYGIS | VIYSDGKRTFYGDSVK | GRTAGTFDM, the assay gave 0.15, -0.08, -0.07, -0.20, -0.28, 0.12 (mean -0.06; controls 0 of 18).
For GFDLNSYGIS | VIYSDGRRTFYGDSVK | GRTAGTFDY, the assay gave 2.31, 2.29, nd, nd, nd, 1.17 (mean 1.93; controls 0 of 18).
For GFDLNSYGIS | VIYSDGRRTFYTDSVK | GQEAGTFDS, the assay gave 0.48, 0.36, -0.02, -0.18, -0.17, -0.26 (mean 0.03; controls 0 of 18).
For GFDLNSYGIS | VIYSDGRRTFYADPVK | GRTAGTFDS, the assay gave 0.44, 0.32, 0.23, -0.32, -0.16, 0.34 (mean 0.14; controls 0 of 18).
For GFELKSYGIS | VIYADGRRTFYGDSVK | GKAAGTFDS, the assay gave 0.68, 0.48, -0.14, 0.17, 0.14, 0.23 (mean 0.26; controls 0 of 18).
For GFDLNSYGIS | VIYSDGKRTFYIDSVK | GRTAGTFDS, the assay gave nd, 0.34, nd, 0.55, 0.65, -0.49 (mean 0.26; controls 0 of 18).
For GFTLNEYGIS | VIYSDGKRTFYGDAVK | GRTAGTFDS, the assay gave 0.22, -0.09, 0.06, -0.27, -0.23, 0.01 (mean -0.05; controls 0 of 18).
For GFDLNSYGIS | VIYSDGRRTFYIDSVK | GTAAGTFDS, the assay gave 1.07, 0.05, 0.04, -0.04, 0.34, 0.23 (mean 0.28; controls 1 of 18).
For KFDLNSYGIS | VIYSDGRRTFYIDSVK | GQAAGTFDS, the assay gave nd, nd, 1.25, 0.02, 3.22, 1.75 (mean 1.56; controls 0 of 18).
For GFSLNSYGIS | VIYSDGRRTFYGDSVK | GWTAGTFDD, the assay gave 1.27, nd, 0.78, 0.08, 0.78, nd (mean 0.73; controls 0 of 18).
For GFELNSYGIS | VIYSDGRRTFYGDSVK | GKEAGTFDT, the assay gave 0.06, -0.31, -0.44, 0.15, -0.35, -0.12 (mean -0.17; controls 0 of 18).
For GFTLNEYGIS | VIYSDGRRTFYGDAVK | GRTAGTFDT, the assay gave 0.34, 0.17, 0.57, 0.14, -0.02, 0.35 (mean 0.26; controls 0 of 18).
For GFSLNEYGIS | VIYSDGRRTFYMDQVK | GRTAGTFDS, the assay gave nd, nd, nd, nd, nd, nd (controls 0 of 18).
For GFSLNEYGIS | VIYSDGRRTFYGDKVK | GRTAGTFDS, the assay gave -0.12, -0.15, -0.50, -0.18, -0.09, -0.24 (mean -0.21; controls 0 of 18).
For GFDLNSYGIS | VIYSDGRRTFYGDSVK | GMEAGTFDS, the assay gave 0.61, 0.64, 0.11, 0.73, 0.44, 0.91 (mean 0.57; controls 0 of 18).
For GFELNSYGIS | VIYSDGKRTFYGDSVK | GKAAGTFDS, the assay gave 0.08, -0.13, 1.27, -0.68, 0.58, -0.32 (mean 0.13; controls 0 of 18).
For GFHLNSYGIS | VIYSDGRRTFYADSVK | GKQAGTFDS, the assay gave 0.92, 1.13, 0.89, 0.86, 1.52, 0.39 (mean 0.95; controls 0 of 18).
For GFNLNSYGIS | VIYSDGRRTFYVDRVK | GRQAGTFDS, the assay gave nd, nd, nd, nd, nd, 3.05 (controls 0 of 18).
For GFQLNEYGIS | VIYSDGRRTFYGDSVK | GHAAGTFDK, the assay gave 0.29, 0.11, 0.06, 0.04, 0.33, 0.51 (mean 0.22; controls 0 of 18).
For GFELNEYGIS | VIYSDGRRTFYGDWVK | GRTAGTFDS, the assay gave nd, nd, nd, nd, nd, nd (controls 0 of 18).
For GFSLNSYGIS | VIYSDGRRTFYGDSVK | GVQAGTFDS, the assay gave 0.83, 0.18, 0.35, 1.03, 0.58, 0.39 (mean 0.56; controls 0 of 18).
For GFSLNEYGIS | VIYSDGRRTFYGDSVK | GHAAGTFDK, the assay gave nd, nd, nd, nd, nd, nd (controls 0 of 18).
For GFSLNSYGIS | VIYSDGRRTFYADRVK | GRNAGTFDS, the assay gave 1.21, 0.80, 1.17, 1.28, 0.68, 1.01 (mean 1.03; controls 0 of 18).
For GFDLNSYGIS | VIYSDGRRTFYTDSVK | GKEAGTFDS, the assay gave -0.37, -0.57, -0.59, -0.51, -0.75, -0.21 (mean -0.50; controls 0 of 18).
For KFDLNSYGIS | VIYSDGRRTFYGDSVK | GWTAGTFDS, the assay gave -0.63, 0.52, -1.04, -0.58, -0.92, -0.39 (mean -0.51; controls 0 of 18).
For GESLNEYGIS | VIYSDGRRTFYGDSVK | GRTAGTFDS, the assay gave 2.01, 1.26, 1.41, 1.80, 1.35, 1.89 (mean 1.62; controls 0 of 18).
For GFSLNEYGIS | VIYSDGRRTFYHDSVK | GRQAGTFDS, the assay gave 0.10, -0.27, 0.09, -0.42, -0.04, -0.05 (mean -0.10; controls 0 of 18).
For GFDLNSYGIS | VIYSDGKRTFYADSVK | GRQAGTFDS, the assay gave 0.53, -1.42, -0.41, -0.80, -1.62, 0.13 (mean -0.60; controls 0 of 18).
For GFHLNSYGIS | VIYSDGRRTFYIDSVK | GRQAGTFDS, the assay gave nd, nd, nd, nd, nd, nd (controls 0 of 18).
For GFELNEYGIS | VIYSDGRRTFYADSVK | GRNAGTFDS, the assay gave 0.04, -0.11, 0.64, 0.08, 0.10, 0.41 (mean 0.19; controls 0 of 18).
For GFTLESYGIS | VIYSDGRRTFYADSVK | GREAGTFDT, the assay gave 0.41, 0.23, 0.54, -0.27, -0.24, 0.57 (mean 0.21; controls 0 of 18).
For GFTLNSYGIS | VIYSDGRRTFYKDSVK | GKTAGTFDS, the assay gave 0.29, 0.22, 0.54, 0.25, 0.08, 0.35 (mean 0.29; controls 0 of 18).
For GFDLNSYGIS | VIYSDGRRTFYGDSVK | GRTAGTFKS, the assay gave 2.74, nd, nd, 2.11, 2.77, 2.10 (mean 2.43; controls 0 of 18).
For GFTLNSYGIS | VIYSDGKRTFYGDNVK | GRVAGTFDS, the assay gave 0.97, 1.12, 0.90, 1.09, 1.13, 1.00 (mean 1.03; controls 1 of 18).
For GFTLNSYGIS | VIYSDGQRTFYSDSVK | GKTAGTFDS, the assay gave 0.65, 0.22, 0.21, -0.07, 0.29, 0.43 (mean 0.29; controls 1 of 18).

Repeated from above, the 2 best binders with a signal in all replicates:

GFDLNSYGIS | VIYSDGKRTFYADSVK | GRQAGTFDS: 0.53, -1.42, -0.41, -0.80, -1.62, 0.13 (mean -0.60; controls 0 of 18).
KFDLNSYGIS | VIYSDGRRTFYGDSVK | GWTAGTFDS: -0.63, 0.52, -1.04, -0.58, -0.92, -0.39 (mean -0.51; controls 0 of 18).

The parent sequence was in this pool as ten entries: three were never detected, three once, and four in most replicates, with averages from 0.34 to 2.37. Background: pairings of all heavy chain designs with three empty control strains gave a value in 1% of cases (median 2.08, 5th percentile 0.84). Values in that range, when seen in few replicates, are hard to tell from nonspecific mating. Also given: how often the same scFv was detected with the empty control strains. A sequence measured in both rounds can read differently, since the two assays cover different ranges.